Experimental data taken from US20200331855A1, “CO-CRYSTAL OF TOCOPHEROL AND PROLINE AND PREPARATION METHOD THEREOF” (priority 2017, published 2020).

How the values were obtained:
Type in all cases: physicochemical
[1] = Strong light irradiation test (5500 Lux), content by HPLC and appearance; settings: 25° C.
Procedure: (§1) The content was determined by HPLC, and the content was calculated by the external standard method.

[2] = Accelerated test stability (40° C./75% relative humidity), D-α-tocopherol vs co-crystal
Procedure: as §1

[3] = Long-term test stability (25° C./60% relative humidity)
Procedure: as §1

[4] = High temperature test (60° C.), content by HPLC and appearance
Procedure: as §1

[5] = Acceleration test (40° C./75% relative humidity), synthetic tocopherol vs co-crystal, total tocopherol content; settings: Month 0, initial set at 100%
Procedure: The content was determined by HPLC, the content was calculated by the external standard method, and the content is calculated based on the total tocopherol content. Both the initial tocopherol contents in the synthetic tocopherol itself and in the co-crystals were set at 100%.

[6] = Month 0, initial content set at 100%

Row | content [5] [%] | Substance | content ([1]; near UV 90 μW/cm^2, Day 0, initial content set at 100%) [%] | content ([1]; near UV 90 μW/cm^2, Day 5) [%] | content ([1]; near UV 90 μW/cm^2, Day 10) [%] | content ([1]; near UV 90 μW/cm^2, Day 20) [%] | content [2, 6] [%] | content ([2]; Month 1) [%] | content ([2]; Month 2) [%] | content ([2]; Month 3) [%] | content [3, 6] [%] | content ([3]; Month 3) [%] | content ([4]; Day 0, HPLC, initial content set at 100%) [%] | content ([4]; Day 5, % of initial content) [%] | content ([4]; Day 10, % of initial content) [%] | content ([4]; Day 20, % of initial content) [%] | content ([4]; Day 30, % of initial content) [%]
1 |  | co-crystal of D-α-tocopherol and L-proline | 100 | 96.3 | 96.1 | 97.3 | 100 | 100.6 | 100.1 | 99.7 | 100.0 | 99.6 | 100 | 98.5 | 96.9 | 96.9 | 95.4
2 | 100.0 | co-crystal of synthetic tocopherol and L-proline |  |  |  |  |  |  |  |  |  |  |  |  |  |  | 
